Two molecules from US5753516A, “Screening method for ligands of the EBI-1 receptor” (priority 1995, dated 1998) can be followed below.

The target in this test is T1, EBI1 (Homo sapiens, UniProt P32248).
T1 sequence (P32248 25-378): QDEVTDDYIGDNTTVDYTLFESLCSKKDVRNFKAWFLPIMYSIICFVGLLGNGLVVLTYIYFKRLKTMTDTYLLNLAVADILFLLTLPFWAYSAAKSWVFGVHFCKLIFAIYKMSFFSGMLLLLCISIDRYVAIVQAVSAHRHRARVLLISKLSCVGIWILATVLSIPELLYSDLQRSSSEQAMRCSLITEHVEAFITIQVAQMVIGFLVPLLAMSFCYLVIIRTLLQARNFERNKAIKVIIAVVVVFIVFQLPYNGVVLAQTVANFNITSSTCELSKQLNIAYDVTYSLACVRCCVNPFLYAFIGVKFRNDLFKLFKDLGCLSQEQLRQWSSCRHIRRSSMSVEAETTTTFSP

Take `C[C@@H](NC(=O)[C@@H](N)Cc1ccc(O)cc1)C(=O)NCC(=O)N(C)[C@@H](Cc1ccccc1)C(=O)NCCO` [DAMGO, [D-Ala^2, Me-Phe^4, Gly(ol)^5]-enkephalin]: the “effect on intracellular cAMP, EBI1 transfectants” value was “but not DAMGO (μ-agonist) or U50,488 (κ-agonist) elicited an elevation in intracellular cAMP content”. `CC1(C)SSC(C)(C)[C@@H](NC(=O)[C@@H](N)Cc2ccc(O)cc2)C(=O)NCC(=O)N[C@@H](Cc2ccccc2)C(=O)N[C@H]1C(=O)O` [DPDPE, [D-Pen^2,5]enkephalin]: the “effect on intracellular cAMP, EBI1 transfectants” value was “elicited an elevation in intracellular cAMP content”.
